Sequences of proteins named here, by UniProt entry; tags and fusion partners are left off.
UniProt P0DMS8, whole entry: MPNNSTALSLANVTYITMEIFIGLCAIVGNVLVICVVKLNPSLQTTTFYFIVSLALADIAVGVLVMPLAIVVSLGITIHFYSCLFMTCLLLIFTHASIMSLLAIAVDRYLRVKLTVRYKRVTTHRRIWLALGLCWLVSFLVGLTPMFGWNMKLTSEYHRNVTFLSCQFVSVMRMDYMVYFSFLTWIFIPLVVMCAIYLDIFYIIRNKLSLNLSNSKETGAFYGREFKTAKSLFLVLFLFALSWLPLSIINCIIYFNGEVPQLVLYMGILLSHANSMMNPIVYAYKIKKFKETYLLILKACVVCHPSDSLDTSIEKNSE

According to ChEMBL document CHEMBL4402597, “Truncated (N)-Methanocarba Nucleosides as Partial Agonists at Mouse and Human A3 Adenosine Receptors: Affinity Enhancement by N6-(2-Phenylethyl) Substitution” (J Med Chem, 2020):

Target: Adenosine receptor A3 (Homo sapiens, UniProt P0DMS8)
Test: Partial agonist activity at recombinant human A3AR expressed in HEK293 cells assessed as inhibition of forskolin-stimulated cAMP accumulation by measuring residual cAMP level measured after 30 mins in presence of A2BAR blocker PSB-603 by Glo-sensor assay relative to control
Format: functional, cell-based

CNC(=O)[C@H]1O[C@@H](n2cnc3c(NCc4cccc(I)c4)nc(Cl)nc32)[C@H](O)[C@@H]1O
Emax: 31.7%
